Target: BL22P1B11 (SEQ ID NO: 35) (Rattus norvegicus, UniProt P02693, A74F/K101R/K126R/K17R/K21R/K28A/K30R/K38R/K47R/K51R/K89R/K8R/K93R/K95R/L39V/L73A/M19L/Q116R/R107L/V26C/V61R/Y118D/Y15R)
Experiment: Kds for binding BL22P1B11 (bilirubin and fatty acids)
Settings: ligand binding to acrylodan labeled BL22P1B11

Amino acid sequences for entries named in this document (tags omitted). Chains listed by the source or under a name are the forms on record and can include a tag or linker. Residues count along the entry.
UniProt P02693, 3-129 with tags or gaps with the stated changes limits assumed: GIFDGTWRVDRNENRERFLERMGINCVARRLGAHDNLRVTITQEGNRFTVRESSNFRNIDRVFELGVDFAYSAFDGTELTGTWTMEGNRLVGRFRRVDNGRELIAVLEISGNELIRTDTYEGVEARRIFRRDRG

In the case of `CCCCCCCC/C=C\CCCCCCCC(=O)O` [Oleate 18:1 (n-9), Oleate], the Kd is reported as 2.51 µM.

From patent publication US10295551B2, “Development and use of fluorescent probes of unbound bilirubin” (Alan Marc Kleinfeld, priority 2011, dated 2019)
